The values below come from publication PMC6605800 (The Journal of Cell Biology, 2019).

The data set concerns the molecule itself. The data set is described as follows: SEC. (Size exclusion chromatography separates by hydrodynamic size, large species first.)

B1: G3BP1_(1-168)-WT (domain or fragment)
chain: MVMEKPSPLLVGREFVRQYYTLLNQAPDMLHRFYGKNSSYVHGGLDSNGKPADAVYGQKEIHRKVMSQNFTNCHTKIRHVDAHATLNDGVVVQVMGLLSNNNQALRRFMQTFVLAPEGSVANKFYVHNDIFRYQDEVFGGFVTEPQEESEEEVEEPEERQQTPEVVPD
As to B1, the binding result is listed as “binds”.
